# Measurements as given in PubChem BioAssay AID460 (PCMD, 2006).
# By UniProt entry, the sequences of proteins in these tests, tags left out. Where a name states a change or a piece, a line headed by the entry shows the natural chain unless it says otherwise.
# UniProt P07711: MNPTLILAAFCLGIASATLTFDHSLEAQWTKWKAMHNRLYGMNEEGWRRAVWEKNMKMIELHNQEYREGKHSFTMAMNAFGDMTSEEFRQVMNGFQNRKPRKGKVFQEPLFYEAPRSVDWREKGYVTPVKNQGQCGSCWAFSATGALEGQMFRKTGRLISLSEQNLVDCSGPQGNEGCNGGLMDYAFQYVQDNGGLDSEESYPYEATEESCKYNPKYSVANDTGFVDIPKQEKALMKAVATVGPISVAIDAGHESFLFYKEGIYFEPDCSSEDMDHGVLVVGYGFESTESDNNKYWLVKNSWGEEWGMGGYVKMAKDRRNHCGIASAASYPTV
# Only a part is listed here, and it is no random draw. The source made the active and inactive calls. Cut-off read from the data, not from the text of the source: active = inhibition above about 45%; inactive = the rest.
# Target: Procathepsin L (Homo sapiens) (UniProt P07711)
# Assay: blockers of CTSL protease activity – biochemical (AID 460);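 note: 0% = enzyme with no compound and 100% = no enzyme blank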
# Settings: purified cathepsin L, fluorogenic substrate, fluorescence; stronger effect = higher value;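 tested at 10 µM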
row,Compound,inhibition
1,O=P(Nc1nccs1)(c1ccccc1)c1nc2ccccc2s1 (centres undefined),inactive: 12.4%
2,CCOP1(=S)c2c(C)nn(CCC#N)c2N=C(c2ccccc2F)N1C (centres undefined),inactive: -0.09%
3,CCOP1(=S)c2c(C)nn(CCC#N)c2N=C(c2ccc(F)cc2)N1C (centres undefined),inactive: 5.15%
4,Cc1cccc(OCC(=O)OC2CN3CCC2CC3)c1 (centres undefined),inactive: 14.9%
5,O=P1(Nc2ccccn2)COc2ccccc2OC1,inactive: -11.1%
6,Clc1n[nH]nc1-c1nn[nH][15n]1,inactive: -2.04%
7,Cc1nn(-c2ccccc2)c2c1P(=O)(N1CCOCC1)N(C)C(c1ccccc1)=N2 (centres undefined),inactive: -2.82%
8,O=P1(Nc2ncccn2)COc2ccccc2OC1,inactive: 2.46%
9,O=P1(Nc2ccc(Br)cn2)COc2ccccc2OC1,inactive: -5.5%
10,Cc1ccc(OCC(=O)OC2CN3CCC2CC3)cc1 (centres undefined),inactive: 0.19%
11,COP1(=S)c2c(C)nn(CCC#N)c2N=C(c2ccc(F)cc2)N1C (centres undefined),inactive: 7.63%
12,O=C(COc1ccccc1)OC1CN2CCC1CC2 (centres undefined),inactive: 7.37%
13,O=C(OC1CN2CCC1CC2)C12CC3CC(CC(C3)C1)C2 (centres undefined),inactive: -7.5%
14,CCc1nc2c(n1)c1c(non1O)c1c2no[n+]1[O-],inactive: 5.63%
15,O=C(OC1CN2CCC1CC2)c1cccc(Cl)c1 (centres undefined),inactive: -4.04%
16,O=P(Nc1nccs1)(c1ccccc1)c1ccccc1,inactive: -2.19%
17,c1nnnn1CCn1cnnn1,inactive: 8.82%
18,O=P1(Nc2nc3ccc(Cl)cc3s2)COc2ccccc2O1 (centres undefined),inactive: 22.3%
19,COC(=O)c1cc2c(s1)N=C(c1ccccc1)N(C)P2(=O)N1CCOCC1 (centres undefined),inactive: -4.36%
